Experimental data published in BindingDB's records for doi:10.1016/0006-2952(93)90073-6 (Janssen Research Foundation, 1993).

Chains of the proteins cited; added tags and fusions are not shown.
UniProt P08908, whole entry: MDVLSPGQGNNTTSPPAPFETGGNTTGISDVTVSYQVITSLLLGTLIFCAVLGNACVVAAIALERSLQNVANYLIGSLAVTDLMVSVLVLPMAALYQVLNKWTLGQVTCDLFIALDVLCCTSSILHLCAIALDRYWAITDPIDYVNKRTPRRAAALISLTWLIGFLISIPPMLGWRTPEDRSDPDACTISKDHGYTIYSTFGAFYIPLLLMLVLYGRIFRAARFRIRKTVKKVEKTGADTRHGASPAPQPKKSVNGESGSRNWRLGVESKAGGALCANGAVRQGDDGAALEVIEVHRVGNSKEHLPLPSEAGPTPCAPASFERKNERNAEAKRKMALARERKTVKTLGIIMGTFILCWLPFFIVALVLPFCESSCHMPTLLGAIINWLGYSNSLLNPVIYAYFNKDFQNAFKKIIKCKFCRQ

Molecular target: 5-hydroxytryptamine receptor 1A (Homo sapiens, UniProt P08908)

Ki: 255 nM
SMILES: CNS(=O)(=O)Cc1ccc2[nH]cc(CCN(C)C)c2c1 [Sumax]
